Experimental data as given in patent publication US6750239B2, “Pyrazole-derived kinase inhibitors and uses thereof” (Vertex Pharmaceuticals Incorporated, priority 2001, dated 2004).

Protein sequences, listed by entry. Tags and fused reporters are not part of them.
UniProt P28482, whole entry: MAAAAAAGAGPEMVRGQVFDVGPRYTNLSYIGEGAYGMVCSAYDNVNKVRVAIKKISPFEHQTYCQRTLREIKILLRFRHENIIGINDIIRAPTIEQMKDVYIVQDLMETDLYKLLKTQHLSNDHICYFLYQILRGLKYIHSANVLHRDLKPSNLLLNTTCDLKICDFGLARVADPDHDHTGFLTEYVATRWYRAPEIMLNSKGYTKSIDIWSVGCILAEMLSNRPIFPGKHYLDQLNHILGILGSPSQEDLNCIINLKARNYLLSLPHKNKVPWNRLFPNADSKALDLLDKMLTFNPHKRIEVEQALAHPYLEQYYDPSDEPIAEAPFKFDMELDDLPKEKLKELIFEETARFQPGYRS

biological target: activated ERK2 (Homo sapiens, UniProt P28482); experiment: ERK2 inhibition spectrophotometric coupled-enzyme assay; details: read-out: ERK2 Inhibitory Activity (Ki class); activated ERK2 10 nM, 65 μM ATP, 30° C., pH 7.5
Protocol: Compounds are assayed for the inhibition of ERK2 by a spectrophotometric coupled-enzyme assay (Fox et al (1998) Protein Sci 7, 2249). In this assay, a fixed concentration of activated ERK2 (10 nM) is incubated with various concentrations of the compound in DMSO (2.5%) for 10 min. at 30° C. in 0.1 M HEPES buffer, pH 7.5, containing 10 mM MgCl2, 2.5 mM phosphoenolpyruvate, 200 μM NADH, 150 μg/mL pyruvate kinase, 50 μg/mL lactate dehydrogenase, and 200 μM erktide peptide. The reaction is initiated by the addition of 65 μM ATP. The rate of decrease of absorbance at 340 nm is monitored, which indicates the extent of uninhibited enzyme present in the assay. The IC50 is evaluated from the rate data as a function of inhibitor concentration.
The compound numbers correspond to the compound numbers in Tables 1-3.

Structure (SMILES) | Ki
CCC(=O)NCc1cc(Cl)cc(-c2c[nH]nc2-c2c[nH]c(C(=O)N[C@H](CO)c3ccccc3)c2)c1 | < 1000 nM
COCCC(=O)NCc1ccc(-c2c[nH]nc2-c2c[nH]c(C(=O)N[C@H](CO)c3ccccc3)c2)cc1Cl | < 1000 nM
CCCCN(CCCC)Cc1cc(Cl)cc(-c2c[nH]nc2-c2c[nH]c(C(=O)N[C@H](CO)c3ccccc3)c2)c1 | < 1000 nM
CCCCNC(=O)NCc1cc(Cl)cc(-c2c[nH]nc2-c2c[nH]c(C(=O)N[C@H](CO)c3ccccc3)c2)c1 | < 1000 nM
CC(=O)N[C@@H](CO)C(=O)NCc1ccc(-c2c[nH]nc2-c2c[nH]c(C(=O)N[C@H](CO)c3ccc(F)c(Cl)c3)c2)cc1Cl | < 1000 nM
CC(=O)NC(CO)C(=O)NCc1ccc(-c2cn[nH]c2-c2c[nH]c(C(=O)NC(CO)c3ccc(F)c(Cl)c3)c2)cc1Cl (centres unmarked) | < 1000 nM
CCCCNC(=O)NCc1cc(Cl)cc(-c2c[nH]nc2-c2c[nH]c(C(=O)N[C@H](COC(=O)NCCCC)c3ccccc3)c2)c1 | 1000 to 5000 nM
CC(=O)N[C@H](CO)C(=O)NCc1ccc(-c2cn[nH]c2-c2c[nH]c(C(=O)N[C@H](CO)c3ccc(F)c(Cl)c3)c2)cc1Cl | < 1000 nM
